Test results as given in patent US20210253705A1, “METHODS AND AGENTS FOR TREATING ORGAN INJURY AND TRANSPLANT REJECTION” (The Regents of the University of California, priority 2020, published 2021).
Entries after “also recorded” stand apart in the source; their conditions may differ.

Key:
[1] = test system: BALB/c left lung allografts in C57BL/6 CCR4+/+ or CCR4−/− recipients; assay: Orthotopic left single lung transplant model; format: in vivo, mice; settings: for lung allograft histopathology / allograft score AR / allograft score LB / allograft score pleural involvement / allograft score septal involvement: day 126; for allograft score AR / allograft score LB / allograft score pleural involvement / allograft score septal involvement: single pre-transplant low dose
Procedure: The orthotopic left single lung transplant model involved BALB/c left lungs transplanted into CCR4+/+ or CCR4−/− recipients in combinations with a single pre-operative dose of 0.1 mg CTLA4-Ig using a modification of the rodent left lung transplant. Donor BALB/c mice were anesthetized, intubated, ventilated and the left lung harvested and Teflon cuffs secured on the pulmonary artery, vein and bronchus then covered with soaked gauze pads on ice. The recipient mice are anesthetized, intubated, and ventilated. A 2-cm incision is made between 3-4 ribs on the left and a ¼-binder clip placed to expose the posterior hilum. Appropriate dissection of the hilum components included ligation and clamping after heparin delivery. A donor lung is inserted using the cuff technique via 10.0 ethilon suture. Incisions closure involved v6-0 surgical suture. During the procedure 1 cc of saline is administered subcutaneously and post-operatively the animals are placed in cages on warm water mattresses until recovered from anesthesia. Buprenorphine 0.1 mg/kg i.p. is given every 12 hours while monitoring for pain. Sutures are removed on post-operative day 7.
(§1) Histopathological Evaluation of Airway and Lung Transplants. Airway and lung graft tissues were fixed overnight in 4% paraformaldehyde, processed, paraffin-embedded, sectioned and stained with hematoxylin and eosin (H&E) or Elastin Trichrome. Three independent blinded reviewers calculated the degree of airway injury using a histological scoring system. All qualitative histological changes were evaluated and the total murine rejection score was calculated based on four pathological criteria: (a) airway lining epithelial loss, (b) deposition of extracellular matrix (ECM), (c) leukocyte infiltration, and (d) luminal fibro-obliteration due to granulation tissue formation and/or fibrosis. Each process was scored on a scale of 0-4 (0=normal, 1=mild, 2=moderate, 3=severe and 4=very severe) and added together for a total rejection score. Lung allograft rejection scores included acute rejection, lymphocytic bronchiolitis, pleural and septal rejection based on established criteria. Images were taken by Zeiss Axioskop 2 plus microscope and analyzed with AxioVision 4.2 imaging software. Images were taken as 5× to show whole pathology of tracheas and as 20× to amplify presence or absence of either epithelial cells and/or fibro-obliteration of the airway allograft lumen as well as different aspects of lung rejection and fibrosis.

[2] = test system: BALB/c airway allografts in C57BL/6 recipients; assay: Heterotopic subcutaneous tracheal/airway transplantation model of allograft rejection; format: in vivo, mice; settings: for airway allograft state (rejection/histology): 0.2 mg i.p. days 0, 2, 4, 6
Source text: Murine Rejection Models. Heterotopic subcutaneous tracheal/airway transplantation model of alloreactivity involves the most stringent MHC class I- and II-disparate combination mismatch found in mice: BALB/c (H-2^d) tracheas transplanted subcutaneously into the upper backs of C57BL/6 (H-2^b) mice (allografts), and C57BL/6 tracheas transplanted subcutaneously into the backs of C57BL/6 mice (syngeneic control). Each mouse was subcutaneously transplanted with two tracheas. Small molecule CCR4 inhibitor or antagonist C 021 dihydrochloride (Cat #3581, Tocris Bio-Techne, Minneapolis, Minn., USA) was resuspended in sterile DMSO to 100 mg/ml and diluted further in 1×PBS to be administered as intraperitoneal (i.p.) injections at 50 mg/kg daily starting at day −1 prior to tracheal transplantation until day 14 when allografts were harvested for rejection analysis. For long-term experiments, CTLA4-Ig treatment (Bristol-Myers Squibb Company, Princeton, N.J., USA) was given as 0.2 mg i.p. injection on day 0 prior to tracheal transplantation and at days 2, 4 and 6 thereafter.
as §1
Adoptive transfer experiments. Total (CD90.2^+), CD4^+ or CD8^+ T cells were purified from spleens of naïve CCR4+/+ or CCR4−/− mice by positive selection using CD90.2, CD4(L3T4) or CD8(Ly-2) T cell Microbead Isolation Kits, respectively following manufacturing instructions. Briefly, animal spleens were surgically extracted and pushed through metal mesh to remove cells and washed twice in MACS rinsing buffer supplemented with 2% BSA. Total cells were counted using Crystal Violet and stained with MicroBeads and purified using positive selection by magnetic LS columns, washed and resuspended in sterile saline. After selection, 1×10^7 CD90.2, 5×10^6 of CD4^+ or 5×10^6 of CD8^+ live T cells (as determined by trypan blue staining) were injected i.v. into each mouse prior to subcutaneous transplantation with BALB/c tracheas. Allograft rejection was analyzed at day 21 by histopathological rejection scoring analysis as previously described. Additionally, we performed in vivo CD8^+ T cell depletion experiments. CCR4−/− mice were given an i.p. injection of either 0.25 mg of anti-CD8 antibody (clone 53-6.72) or control isotype antibody (clone 2A3) at day −1 of heterotopic BALB/c transplant and repeated at days 7 and 14 post-transplant with the addition of a transfer of 5×10^6 CD4^+ T cells injected immediately prior to heterotopic transplant procedure. Allografts were isolated at day 21 and evaluated for rejection.

[3] = CCR4+/+ recipients, 0.1 mg i.p. just prior to transplant, by day 126

## CTLA4-Ig: CTLA4-Ig treatment (Bristol-Myers Squibb Company)
[1]; [3]
  grade A rejection (AR) of lung allografts: ≥ 3
  grade B rejection (B) of lung allografts: ≥ 3
[1]; CCR4+/+ recipients, 0.1 mg i.p. just prior to transplant
  lung allograft histopathology: severe pleural and septal inflammation with and without fibrosis; also recorded: high grade vascular, airway and pleural rejection with fibrosis
[1]; CCR4+/+ recipients
  allograft score AR: 100%
  allograft score LB: 100%
  allograft score pleural involvement: 60%
  allograft score septal involvement: 80%
[1]; CCR4−/− recipients, 0.1 mg i.p. just prior to transplant
  lung allograft histopathology: virtually normal lung allografts without any significant pathology; also recorded: virtually normal lung allograft
[1]; CCR4−/− recipients
  allograft score AR: 0%
  allograft score LB: 0%
  allograft score pleural involvement: 0%
  allograft score septal involvement: 0%
[2]; CCR4+/+ recipients, by day 42
  airway allograft state (rejection/histology): completely rejected and fibro-obliterated; also recorded: rejected and invaded by fibroblasts causing fibro-obliteration
[2]; CCR4+/+ recipients, day 126
  airway allograft state (rejection/histology): rejected, without epithelium, and invaded by fibroblasts causing fibro-obliteration
[2]; CCR4 deficiency combined with low dose CTLA4-Ig at time of airway transplantation
  long-term airway allograft survival: over 125 days
[2]; CCR4 deficiency plus CTLA4-Ig versus CTLA4-Ig alone
  allograft survival relative to CTLA4-Ig alone: over 3 times
[2]; CCR4−/− recipients, day 42
  airway allograft state (rejection/histology): virtually normal airways with intact ciliated epithelium and no fibro-obliteration
[2]; CCR4−/− recipients, day 126
  airway allograft state (rejection/histology): virtually normal airways with intact ciliated epithelium and no fibro-obliteration; also recorded: virtually normal airway allografts
[2]; CCR4−/− recipients, days 42 and 126
  airway allograft state (rejection/histology): virtually normal
